From patent EP1063290A1, “NOVEL DICARBONYLREDUCTASE AND GENE ENCODING THE SAME” (TAISHO PHARMACEUTICAL CO., LTD, priority 1998, dated 1999) come the findings set out here.

Protein sequences, listed by entry. Tags and fused reporters are not part of them. Lines headed by an entry give the natural chain unless they say otherwise; changes in a name come on top.
UniProt Q91X52: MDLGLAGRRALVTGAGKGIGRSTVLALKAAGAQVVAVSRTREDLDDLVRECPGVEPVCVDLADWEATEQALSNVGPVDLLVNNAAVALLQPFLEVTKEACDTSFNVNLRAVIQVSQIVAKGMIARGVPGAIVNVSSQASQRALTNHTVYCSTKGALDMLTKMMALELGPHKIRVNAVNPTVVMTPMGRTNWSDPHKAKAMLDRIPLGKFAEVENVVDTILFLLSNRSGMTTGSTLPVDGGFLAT

Structures are written as SMILES.

The target in the experiment is protein DCR1 (Mus musculus, UniProt Q91X52). Briefly: Dicarbonyl reductase activity assay: substrate specificity and rate constants (NAD(P)H oxidation at 340 nm). The following applies: substrate concentration 1,000 μM; against a reference of 100 for diacetyl. As for the experimental part:
The enzyme activity assay method is not particularly restricted, and it may be based on the activity assay method for mouse carbonyl reductase (CR) (Eur. J. Biochem. 22, 381-387(1995)). The enzyme used here was an expressed recombinant enzyme. • (a) Substrate specificity: In order to determine the substrate specificity, there may be used a hydrocarbon system including various ketone, aldehyde and ester groups, or an aromatic compound.
• (1) This was assayed under the following conditions. The reaction mixture (total: 2.0 ml) comprised an 80 mM potassium phosphate solution (pH 7.0 or 6.0), 0.1 mM NADPH or NADH and a carbonyl substrate or enzyme (50 µl) (10.1 µg or 3.7 µg of glomerin B). The oxidation rate for NAD(P)H was measured at 340 nm.

Regarding `O=C1CCc2ccccc21` [1-Indanone], the “RA (%) relative activity” value is given as 0%.
